Reference: PubChem BioAssay AID687036 (The Scripps Research Institute Molecular Screening Center, 2013)
The entries are a selection whose mix differs from that of the whole data set. The source made the active and inactive calls.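 How the source made its calls: active means mean inhibition across replicates above the hit cutoff derived for the earlier primary screen (cut at about 22% in these data); inactive means the rest.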

The chains behind the UniProt entries cited, without tags or fusion partners.
UniProt Q99873, whole entry, looked up: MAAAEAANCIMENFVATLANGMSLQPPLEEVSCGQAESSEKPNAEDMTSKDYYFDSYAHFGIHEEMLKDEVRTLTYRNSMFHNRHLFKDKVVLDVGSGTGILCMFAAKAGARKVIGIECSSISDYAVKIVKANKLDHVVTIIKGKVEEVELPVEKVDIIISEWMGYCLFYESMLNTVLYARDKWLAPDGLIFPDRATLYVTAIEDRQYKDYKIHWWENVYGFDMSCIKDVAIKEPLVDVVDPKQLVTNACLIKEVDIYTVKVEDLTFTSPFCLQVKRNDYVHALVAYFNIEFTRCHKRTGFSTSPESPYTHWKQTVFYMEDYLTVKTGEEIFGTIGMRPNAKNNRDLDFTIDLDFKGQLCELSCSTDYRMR

Target: Protein arginine N-methyltransferase 1 (Homo sapiens) (UniProt Q99873)
Test: human PRMT1 activity-probe blockers, retest – biochemical, fluorescence polarization, triplicate, confirmation (AID 687036)
Settings: recombinant His-PRMT1, activity-based probe fluorescence polarization; at 2.79 µM; stronger effect = higher value

Structure (SMILES)	inhibition
Cc1cc(SC(NC=O)C(Cl)(Cl)Cl)ncn1 (stereo unspecified)	active: 45.2%
CC(C)(C)C(=O)NC(Sc1ncccn1)C(Cl)(Cl)Cl (stereo unspecified)	inactive: 2.62%
COc1ccc(C2=NCC(CBr)S2)cc1 (stereo unspecified)	active: 38.3%
CC(C)(C)C(=O)NC(Sc1ccncn1)C(Cl)(Cl)Cl (stereo unspecified)	inactive: 7.31%
Cc1cc(SC(NC(=O)c2ccc(F)cc2)C(Cl)(Cl)Cl)ncn1 (stereo unspecified)	active: 58.4%
O=C(NC(Sc1ccncn1)C(Cl)(Cl)Cl)c1ccccc1 (stereo unspecified)	inactive: 14.1%
